From ChEMBL document CHEMBL3808287, “AXL Inhibitors in Cancer: A Medicinal Chemistry Perspective” (J Med Chem, 2016) come the findings set out here.

In the assay the target is T1, Tyrosine-protein kinase Mer (Homo sapiens, UniProt Q12866).
T1 sequence (Q12866 whole entry): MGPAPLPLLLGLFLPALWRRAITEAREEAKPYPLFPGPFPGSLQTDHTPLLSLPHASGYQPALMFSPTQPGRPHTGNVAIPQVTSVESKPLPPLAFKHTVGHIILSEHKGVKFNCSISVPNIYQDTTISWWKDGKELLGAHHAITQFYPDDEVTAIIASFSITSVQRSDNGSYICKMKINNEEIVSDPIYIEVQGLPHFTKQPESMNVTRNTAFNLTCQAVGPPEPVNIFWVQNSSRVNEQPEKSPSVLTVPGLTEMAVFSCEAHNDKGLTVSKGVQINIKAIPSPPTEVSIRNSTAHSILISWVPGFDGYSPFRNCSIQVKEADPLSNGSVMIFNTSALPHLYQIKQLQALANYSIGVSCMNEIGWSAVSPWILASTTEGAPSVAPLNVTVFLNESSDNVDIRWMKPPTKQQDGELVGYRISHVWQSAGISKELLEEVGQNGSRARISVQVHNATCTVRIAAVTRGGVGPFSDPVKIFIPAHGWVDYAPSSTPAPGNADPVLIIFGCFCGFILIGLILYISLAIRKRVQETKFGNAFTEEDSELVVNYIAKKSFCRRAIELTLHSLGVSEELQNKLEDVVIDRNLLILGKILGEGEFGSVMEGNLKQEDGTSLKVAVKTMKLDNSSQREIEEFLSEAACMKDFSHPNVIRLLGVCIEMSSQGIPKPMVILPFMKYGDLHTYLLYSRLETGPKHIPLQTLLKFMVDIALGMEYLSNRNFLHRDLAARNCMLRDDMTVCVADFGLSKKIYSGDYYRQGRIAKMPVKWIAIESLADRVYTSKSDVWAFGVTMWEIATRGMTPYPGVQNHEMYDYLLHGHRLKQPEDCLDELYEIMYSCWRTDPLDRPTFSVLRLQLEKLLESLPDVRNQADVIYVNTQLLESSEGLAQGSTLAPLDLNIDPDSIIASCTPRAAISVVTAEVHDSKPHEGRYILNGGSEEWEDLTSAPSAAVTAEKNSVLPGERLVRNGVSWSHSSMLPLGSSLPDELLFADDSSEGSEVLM
The assay is described as follows: Inhibition of human recombinant MER by fluorescence polarization assay.

`Nc1nc(Nc2ccc3c(c2)CC[C@@H](N2CCCC2)CC3)nn1-c1cc2c(nn1)-c1ccccc1CCC2` [BEMCENTINIB]: the half-inhibitory concentration (IC50) is > 700 nM.
